The results in this text go back to ChEMBL document CHEMBL1140135 (J Med Chem, 2008).

This experiment addresses T1, Dihydrofolate reductase (Homo sapiens, UniProt P00374).
T1 sequence (P00374 whole entry): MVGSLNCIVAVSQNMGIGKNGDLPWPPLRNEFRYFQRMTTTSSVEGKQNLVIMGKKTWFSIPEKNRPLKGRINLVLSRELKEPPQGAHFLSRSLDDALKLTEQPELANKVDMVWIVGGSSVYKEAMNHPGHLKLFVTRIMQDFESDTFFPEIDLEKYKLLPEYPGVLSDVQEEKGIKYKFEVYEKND

Broadly, the IC50 is the point on the concentration scale where inhibition reaches its midpoint. Low values mean greater potency, high ones weaker potency. In the case of `Cc1sc2nc(N)[nH]c(=O)c2c1Sc1ccc(Cl)c(Cl)c1`, 2.8 µM corresponded to half-maximal inhibition (IC50).
